Results published in PubChem BioAssay AID720708 (National Center for Advancing Translational Sciences (NCATS), 2013).
The list shows a part of the results, in another mix than the full data. The source made the active and inactive calls. The call rests on the fitted dose curve; in most records, active means well fitted inhibition curve with a large enough effect; inconclusive means small, poorly fitted or top-dose-only effect; inactive means no such curve, though single readings can be large or run the other way.

The chains behind the UniProt entries cited, without tags or fusion partners. Where a name states a change or a piece, a line headed by the entry shows the natural chain unless it says otherwise.
UniProt Q8WZA2: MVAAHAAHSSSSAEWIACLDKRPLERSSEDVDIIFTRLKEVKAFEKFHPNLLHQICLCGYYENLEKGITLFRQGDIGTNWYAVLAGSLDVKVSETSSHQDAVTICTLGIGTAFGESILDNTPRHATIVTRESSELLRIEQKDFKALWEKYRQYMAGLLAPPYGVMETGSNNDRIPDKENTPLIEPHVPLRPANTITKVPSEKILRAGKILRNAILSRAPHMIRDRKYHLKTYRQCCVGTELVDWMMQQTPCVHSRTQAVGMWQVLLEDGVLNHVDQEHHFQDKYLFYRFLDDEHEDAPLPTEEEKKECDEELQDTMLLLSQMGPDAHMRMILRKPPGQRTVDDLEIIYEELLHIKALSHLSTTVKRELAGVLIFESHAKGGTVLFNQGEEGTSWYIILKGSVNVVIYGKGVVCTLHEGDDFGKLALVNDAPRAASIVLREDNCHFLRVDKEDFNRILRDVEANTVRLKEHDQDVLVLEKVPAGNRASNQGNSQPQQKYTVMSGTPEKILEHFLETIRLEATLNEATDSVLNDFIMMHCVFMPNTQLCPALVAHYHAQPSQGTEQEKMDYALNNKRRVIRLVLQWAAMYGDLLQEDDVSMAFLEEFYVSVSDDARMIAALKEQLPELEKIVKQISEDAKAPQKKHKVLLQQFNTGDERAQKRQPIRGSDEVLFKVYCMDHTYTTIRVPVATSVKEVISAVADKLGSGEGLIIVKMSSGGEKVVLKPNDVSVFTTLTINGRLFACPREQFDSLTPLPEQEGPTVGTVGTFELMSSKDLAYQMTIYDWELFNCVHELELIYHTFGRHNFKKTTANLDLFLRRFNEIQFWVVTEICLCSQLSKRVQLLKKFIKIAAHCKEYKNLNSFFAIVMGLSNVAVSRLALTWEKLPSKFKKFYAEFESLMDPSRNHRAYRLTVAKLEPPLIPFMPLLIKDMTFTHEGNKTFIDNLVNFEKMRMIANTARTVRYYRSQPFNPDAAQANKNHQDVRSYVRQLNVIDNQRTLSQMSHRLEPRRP

Biological target: Rap guanine nucleotide exchange factor 4 (Homo sapiens) (UniProt Q8WZA2)
Test: qHTS for Antagonist of cAMP-regulated guanine nucleotide exchange factor 2 (EPAC2): primary screen; further: nearly all actives have a fitted effect of over 45% in size
Conditions: EPAC2 GEF exchange of Rap1B-BODIPY-GDP, fluorescence; at 114 µM (top of the series) unless noted
Source text: In multi-cellular eukaryotic organisms, the effects of cAMP are transduced by two ubiquitously-expressed intracellular cAMP receptors, the classic protein kinase A/cAMP-dependent protein kinase (PKA/cAPK) and the more recently discovered exchange protein directly activated by cAMP/cAMP-regulated guanine nucleotide exchange factor (EPAC/cAMP-GEF). Both PKA and EPAC are ubiquitously expressed in all tissues, and an increase in intracellular cAMP levels will lead to the activation of both PKA and EPAC. Therefore, careful dissections of the individual role and relative contribution of EPAC and PKA within the overall cAMP signaling in various model systems are critical for further elucidating the mechanism of cAMP signaling. To date no EPAC-specific antagonists and agonist, as well as isoform-specific agonists have been reported, and developing EPAC-specific pharmacological probes to determine the physiological functions that EPAC play in the overall cAMP-mediated signaling remains a major challenge within the research field. Furthermore, identified regulators of EPAC may lead to new mechanism-based therapeutic strategies specifically targeting the EPAC / cAMP-signaling components as EPAC has been implicated to play important roles in major human pathological conditions such as diabetes, heart disease, and cancer.
This qHTS will be used to screen the Molecular Libraries Small Molecule Repository (MLSMR) as a concentration-titration series using the NCGC unique quantitative screening (qHTS) platform to find inhibitors for EPAC2. In addition, this assay will also be used as a counterscreen for the EPAC1 qHTS. This fluorescent based assay is developed and validated for EPAC2 that measures exchange using EPAC effector Rap1 complex with BODIPY-GDP, a GDP analog with a tethered fluorophores. Inhibitors are identified by monitoring the change in fluorescence signal as the exchanged free BODIPY-GDP has a reduced fluorescence compared to Rap1-bound BODIPY-GDP. Decrease in signal (inhibition) is the desired outcome for the EPAC2 antagonist while no activity in this assay is desired for the EPAC1 antagonist counterscreen.
NIH Chemical Genomics Center [NCGC]
NIH Molecular Libraries Probe Centers Network [MLPCN]
Assay Submitter (PI): Xiaodong Cheng, The University of Texas, Medical Branch
Briefly, three uL of reagents (100 nM EPAC2, 250 nM RAP1B-BODIPY-GDP, 50 uM GDP) were dispensed into a 1536-well Greiner black solid-bottom medium binding assay plate. Controls and test compounds (23 nL) were transferred to the plate via a Kalypsys pin tool equipped with a 1536-pin array. The plates were centrifuged at 1,000 rpm for 15 seconds followed by 5 minute incubation at room temperature. The assay plates were read at 5 minute intervals for 30 minutes in the ViewLux plate reader using 480nm excitation and 540nm emission filters. The results were normalized to the agonist positive control ATA and DMSO.
On the % scale 0 is the no-effect control and ±100 the full control effect.

| SMILES | activity, negative = inhibition |
| --- | --- |
| CCN(N=Nc1nonc1N)c1nonc1N | inactive: 0.398% |
| Nc1cccc2ccc([As](=O)(O)O)cc12 | inactive: -11.9% |
| CCCC1OP(N)(=O)OCC1CC (stereo not given) | inactive: 13% |
| O=C(O)c1ccccc1[As](=O)(O)O | inactive: -5.5% |
| CC(=O)Nc1ccc([As](=O)(O)O)cc1 | inactive: 6.5% |
| CN(C)P(=O)(N(C)C)n1c(Nc2ccccc2)nnc1-c1ccccc1 | inactive: -17.8% |
| O=P(Nc1nc2ccc(Cl)cc2s1)(c1ccccc1)c1ccccc1 | inactive: -22.8% |
| CN(C(=O)Cc1ccc(Cl)c(Cl)c1)[C@H]1CCCC[C@@H]1N1CCCC1 | inactive: 4.04% |
| Cc1ccc(NP(=O)(Oc2ccccc2F)Oc2ccccc2F)nc1 | inactive: -14.5% |
| CCOP(=O)(Nc1ccccc1)OCC | inactive: 9.74% |
| Cc1cc(SC(NC(=O)c2ccc(F)cc2)C(Cl)(Cl)Cl)ncn1 (stereo not given) | inactive: -2.74% |
| CC(C)CC(=O)NC(Sc1ccc(Cl)cc1)C(Cl)(Cl)Cl (stereo not given) | inactive: -2.84% |
| Nc1cc(N)c2nonc2c1[N+](=O)[O-] | inactive: 14.5% |
| O=C(NC(Sc1ccncn1)C(Cl)(Cl)Cl)c1ccccc1 (stereo not given) | inactive: -2.66% |
| Oc1ccccc1CNc1ccccn1 | inactive: -1.7% |
| O=[N+]([O-])C1C(O)C(O)C([N+](=O)[O-])C(O)C1O (stereo not given) | inactive: 6.93% |
| NC(=O)c1cc([N+](=O)[O-])cc([N+](=O)[O-])c1N | inactive: 6.64% |
| Cc1ccc(N/C(=N/P(=O)(N2CCOCC2)N2CCOCC2)N2CCOCC2)cc1 | inactive: 11.8% |
| CN(C(=O)Cc1ccc(Cl)c(Cl)c1)[C@H]1CCCC[C@H]1N1CCCC1 | inactive: 9.54% |
| Cc1ccc(OP(=O)(Nc2nccs2)Oc2ccc(C)cc2)cc1 | inactive: 7.44% |
| COc1ccccc1OP(=O)(Nc1ccc(C)cn1)Oc1ccccc1OC | inactive: -9.24% |
| Clc1ccc(Cl)c(NC2=NCC(CBr)S2)c1 (stereo not given) | inactive: -5.78% |

| SMILES | activity, negative = inhibition |
| --- | --- |
| CN1CCCC(OC(=O)C(c2ccccc2)c2ccccc2)C1 (stereo not given) | inactive: 19.2% |
| C[N+]1=C2C=CC=CC=C2SC12C([N+](=O)[O-])=CC([N+](=O)[O-])=C[C-]2[N+](=O)[O-] (stereo not given) | inactive: -4.05% |
| Nc1ccc([As](=O)(O)c2ccc(N)cc2)cc1 | inactive: 6.56% |
| CCN(/C(=N/P(=O)(N1CCOCC1)N1CCOCC1)N1CCOCC1)c1ccc(OC)cc1 | inactive: 3.05% |
| CN(C)C(=O)OCCc1n(C)cc[n+]1C | inactive: 14.2% |
| CC(C)=N/N=C(\N)N[N+](=O)[O-] | inactive: -0.511% |
| CC(C)c1nc(Nc2ccccc2)n(P(=O)(N(C)C)N(C)C)n1 | inactive: 1.6% |
| c1cc(-c2nn[nH]n2)ccc1-c1nn[nH]n1 | inactive: 10.8% |
| COc1ccc(C2=NCC(CBr)S2)cc1 (stereo not given) | inactive: 0.856% |
| CC(=O)N1C2C3N(C(C)=O)C1C1N(C(C)=O)C(C(N1C(C)=O)N3C(C)=O)N2C(C)=O | inactive: 0.325% [at 57.1 µM] |
| O=[N+]([O-])c1cccc2n[nH]nc12 | inactive: -2.38% |
| O=[N+]([O-])c1cc([N+](=O)[O-])c(CCNc2ccccc2)c([N+](=O)[O-])c1 | inactive: -14.3% |
| CCc1nc2c(n1)c1c(non1O)c1c2no[n+]1[O-] | inactive: 3.81% |
| Cc1ccc(NP(=O)(Oc2ccccc2)Oc2ccccc2)nc1 | inactive: -4.16% |
| CC(C)(C)C(=O)NC(Sc1ccncn1)C(Cl)(Cl)Cl (stereo not given) | inactive: 6.12% |
| O=[N+]([O-])c1ncn(CCn2ncnc2[N+](=O)[O-])n1 | inactive: -2.82% |
| O=[N+]([O-])c1cccc(NC2=NCC(CBr)S2)c1 (stereo not given) | inactive: -4.14% |
| COC(=O)C1(C)COP(=O)(Nc2ccccc2)OC1 (stereo not given) | inactive: 2.23% |
| O=C(O)CNc1ccc([As](=O)(O)O)cc1 | inactive: 5.47% |
| O=P1(N(CCCl)CCCl)OCCCS1 (stereo not given) | inactive: -1.34% |
| O=C(Nc1cc([As](=O)(O)O)ccc1O)c1ccccc1 | inactive: -1.04% |
| CC(=O)NC(SC(=S)N(C)C)C(Cl)(Cl)Cl (stereo not given) | inactive: 0.504% |

| SMILES | activity, negative = inhibition |
| --- | --- |
| O=[N+]([O-])c1ncn(CCn2cnc([N+](=O)[O-])n2)n1 | inactive: -0.187% |
| O=[N+]([O-])c1ccc(O)c(/C=N/Nc2ccc([N+](=O)[O-])cc2[N+](=O)[O-])c1 | inactive: -10.4% |
| O=[As](O)(c1ccccc1)c1ccc(O)cc1 | inactive: 0.0959% |
| Nc1ccc([As](=O)(O)c2ccc([N+](=O)[O-])cc2)cc1 | inactive: 1.8% |
| C(Cc1nn[nH]n1)Cc1nn[nH]n1 | inactive: -0.119% |
| O=C(OC1CN2CCC1CC2)c1cccc(Cl)c1 (stereo not given) | inactive: 7.3% |
| COc1ccc(N)c([N+](=O)[O-])c1[N+](=O)[O-] | inactive: -12.8% |
| CN(C)C1(CNC(=O)c2ccc(Cl)c(S(N)(=O)=O)c2)CCCCC1 | inactive: 2.17% |
| C[C@H]1OP(=O)(Oc2ccccc2)[C@H](O)[C@H](O)[C@H]1N=[N+]=[N-] (stereo not given in full) | inactive: -8.57% |
| O=P(Nc1nc2ccccc2s1)(c1ccccc1)c1ccccc1 | inactive: -18% |
| O=P(Nc1nccs1)(c1ccccc1)c1ccccc1 | inactive: -6.64% |
| CC(C)C(=O)NC(Sc1ccccc1)C(Cl)(Cl)Cl (stereo not given) | inactive: 0.27% |
| c1nnnn1CCn1cnnn1 | inactive: -2.6% |
| COC(=O)C1(C)COP(=O)(NCc2ccccc2)OC1 (stereo not given) | inactive: 7.39% |
| N#C/C(=C\c1ccc(N(CCBr)CCBr)cc1)C(N)=O | inactive: -1.63% |
| CC(=O)c1ccc(N2CC2c2ccncc2)cc1 (stereo not given) | inactive: 5.27% |
| C[C@@H]1C=CCP(=O)(Oc2ccccc2)O1 (stereo not given in full) | inactive: 3.16% |
| C[C@H]1OP(=O)(Oc2ccccc2)C[C@@H]2O[C@@H]21 (stereo not given in full) | inactive: -6.75% |
| Cc1ccccc1CN(C)C(=O)COC(=O)C(O)(c1ccccc1)c1ccccc1 | inactive: -18.6% |
| CC(=O)Nc1ccc(Oc2c([N+](=O)[O-])cc([N+](=O)[O-])cc2[N+](=O)[O-])cc1 | inactive: -18% |
| CC(=O)Nc1ccc([As](=O)(O)O)c(O)c1 | inactive: 2.58% |
